Results from publication PMC6624297 (Cell Death & Disease, 2019).

Sequences of proteins named here, by UniProt entry; tags and fusion partners are left off. A change or cut given only in a name is not applied to a line headed by its entry.
UniProt P04818: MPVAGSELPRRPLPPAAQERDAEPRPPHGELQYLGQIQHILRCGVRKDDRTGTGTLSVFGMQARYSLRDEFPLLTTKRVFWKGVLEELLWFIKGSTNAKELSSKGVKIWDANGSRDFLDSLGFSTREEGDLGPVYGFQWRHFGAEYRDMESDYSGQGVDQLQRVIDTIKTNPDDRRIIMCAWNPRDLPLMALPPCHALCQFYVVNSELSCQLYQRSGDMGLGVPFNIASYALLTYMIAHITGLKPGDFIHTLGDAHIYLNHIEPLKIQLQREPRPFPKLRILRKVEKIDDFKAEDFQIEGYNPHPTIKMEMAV

Molecular target: T1, human TS (hTS) (Homo sapiens, UniProt P04818)
T1 construct: purchased ProSpec-Tany
Test: Thymidylate synthase (TS) spectrophotometric assay
Type: biochemical

For Nc1nc2[nH]cc(CCc3ccc(C(=O)N[C@@H](CCC(=O)O)C(=O)O)cc3)c2c(=O)[nH]1 [PTX, pemetrexed, reference compound], the IC50 was 2710 nM.
